Results from patent US20090286829A1, “QUINOLYNYLMETHYLIMIDIZOLES AS THERAPEUTIC AGENTS” (ALLERGAN, INC., priority 2008, published 2009).

Protein sequences, listed by entry. Tags and fused reporters are not part of them.
UniProt P08913, whole entry: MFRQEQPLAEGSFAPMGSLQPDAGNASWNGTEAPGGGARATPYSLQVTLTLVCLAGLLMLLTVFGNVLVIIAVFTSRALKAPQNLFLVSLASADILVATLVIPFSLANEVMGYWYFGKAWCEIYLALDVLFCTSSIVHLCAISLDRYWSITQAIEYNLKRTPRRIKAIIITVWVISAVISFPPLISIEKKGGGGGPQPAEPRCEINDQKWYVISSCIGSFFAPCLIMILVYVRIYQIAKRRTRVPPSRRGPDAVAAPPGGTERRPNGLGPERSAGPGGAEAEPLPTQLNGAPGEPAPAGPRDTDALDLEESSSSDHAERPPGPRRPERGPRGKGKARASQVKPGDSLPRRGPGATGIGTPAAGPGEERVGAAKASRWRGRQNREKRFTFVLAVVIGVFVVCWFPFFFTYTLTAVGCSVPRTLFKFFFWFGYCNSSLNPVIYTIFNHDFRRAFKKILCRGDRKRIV

Target: T1, Alpha 2A (Homo sapiens, UniProt P08913)
T1 construct: expressed in transfected cells; host or cells: NIH-3T3
Assay: RSAT assay, alpha 2A receptor
Assay type: cell-based
Settings: transfected NIH-3T3 cells with Gq/i5, NA = not active at concentrations less than 10 micromolar
Experimental: The RSAT assay measures a receptor-mediated loss of contact inhibition that results in selective proliferation of receptor-containing cells in a mixed population of confluent cells. The increase in cell number is assessed with an appropriate transfected marker gene such as -galactosidase, the activity of which can be easily measured in a 96-well format. Receptors that activate the G protein, Gq, elicit this response. Alpha2 receptors, which normally couple to Gi, activate the RSAT response when coexpressed with a hybrid Gq protein that has a Gi receptor recognition domain, called Gq/i5.
NIH-3T3 cells are plated at a density of 2×10^6 cells in 15 cm dishes and maintained in Dulbecco's modified Eagle's medium supplemented with 10% calf serum. […] After washing with phosphate-buffered saline, β-galactosidase enzyme activity is determined by adding 200 μl of the chromogenic substrate (consisting of 3.5 mM o-nitrophenyl-β-D-galactopyranoside and 0.5% nonidet P-40 in phosphate buffered saline), incubating overnight at 30° C. and measuring optical density at 420 nm. The absorbance is a measure of enzyme activity, which depends on cell number and reflects a receptor-mediated cell proliferation. The efficacy or intrinsic activity is calculated as a ratio of the maximal effect of the drug to the maximal effect of a standard full agonist for each receptor subtype. […]

Compound: Cc1[nH]cnc1Cc1ccc2cccnc2c1C [8-methyl-7-((5-methyl-1H-imidazol-4-yl)methyl)quinoline]
- EC50: 284 nM
